Measured values as given in patent publication US8293914B2, “4-OXO,1-4-dihydroquinoline M1 receptor positive allosteric modulators” (Merck Sharp & Dohme Corp., priority 2008, dated 2012).

Amino acid sequences for entries named in this document (tags omitted). A change or cut given only in a name is not applied to a line headed by its entry.
UniProt P11229: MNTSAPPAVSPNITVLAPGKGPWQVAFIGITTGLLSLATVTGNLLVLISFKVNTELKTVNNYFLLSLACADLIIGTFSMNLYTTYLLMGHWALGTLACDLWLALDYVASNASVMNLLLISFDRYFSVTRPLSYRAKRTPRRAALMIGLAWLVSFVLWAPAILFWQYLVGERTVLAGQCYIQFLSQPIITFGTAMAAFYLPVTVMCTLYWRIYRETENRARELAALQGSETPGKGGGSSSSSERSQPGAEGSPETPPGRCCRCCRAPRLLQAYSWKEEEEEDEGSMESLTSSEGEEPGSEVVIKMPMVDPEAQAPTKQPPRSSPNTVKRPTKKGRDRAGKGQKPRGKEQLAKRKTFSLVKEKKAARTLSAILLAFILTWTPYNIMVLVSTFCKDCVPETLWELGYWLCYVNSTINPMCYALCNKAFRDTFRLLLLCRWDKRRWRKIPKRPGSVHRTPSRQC

Biological target: T1, acetylcholine muscarinic M1 receptor (CHOnfat/hM1 cells) (Homo sapiens, UniProt P11229)
T1 construct: expressed in transfected cells; host or cells: CHOnfat (CHO) cells expressing hM1
Test: muscarinic M1 FLIPR calcium assay for positive allosteric modulator activity (acetylcholine EC20)
Type: cell-based
Protocol: The assay studies the effect of one or several concentrations of test compounds on basal or acetylcholine-stimulated Ca^2+ levels using FLIPR.
Compounds are prepared and subjected to a preincubation period of 4 min. Thereafter, a single EC20 concentration of acetylcholine is added to each well (3 nM final). The intracellular Ca^2+ level of each sample is measured and compared to an acetylcholine control to determine any modulatory activity.
Cells: CHOnfat/hM1, hM2, hM3 or hM4 cells are plated 24 hr before the assay at a density of 18,000 cells/well (100 μL) in a 384 well plate. CHOnfat/hM1 and CHOnfat/hM3 Growth Medium: 90% DMEM (Hi Glucose); 10% HI FBS; 2 mM L-glutamine; 0.1 mM NEAA; Pen-Strep; and 1 mg/ml Geneticin, are added. For M2Gqi5CHOnfat and M4Gqi5CHOnfat cells, an additional 600 μg/ml hygromycin is added.
Buffers. […] Dye Loading Buffer: Assay Buffer plus 1% Fetal Bovine Serum and Fluo-4AM/Pluronic Acid Mixture. […] 20% Pluronic Acid Solution stock, with a concentration of 0.04% in Buffer, 0.02% in Assay.
65 μL of 2 mM Fluo-4AM are mixed with 130 μL of 20% Pluronic Acid. The resulting solution and 650 μL FBS is added to the assay buffer for a total volume of 65 mL. Positive Controls: 4-Br-A23187: 10 mM in DMSO; final concentration 10 μM. Acetylcholine: 10 mM in water, working stock at both 20 μM and 30 μM in assay buffer, final concentration of 10 μM. This is used to check the maximum stimulation of the CHOK1/hM1 cells. 20 μM (2×) acetylcholine is added in the preincubation part of the assay, and the 30 μM (3×) stock is added in the second part. (EC20)Acetylcholine: 10 mM in water, working stock of 9 nM (3×), and final concentration in assay is 3 nM. This is used after the preincubation with test compounds. […]
After 60 min, the cells are washed three times with 100 μL of buffer, leaving 30 μL of buffer in each well. […] A signal test to check background fluorescence and basal fluorescence signal is performed. […]
The inflection point is calculated from the FLIPR values, and is a measure of activity.

SMILES | EC50 [µM]
Cn1cc(-c2ccc(Cn3cc(C(=O)O)c(=O)c4c(F)cccc43)nc2)cn1 [Example 11] | 0.176
CC(=O)Nc1cccc(-c2ccc(Cn3cc(C(=O)O)c(=O)c4cccc(F)c43)nc2)c1 [Example 75] | 0.131
O=C(O)c1cn(Cc2ccc(-c3cccnc3)nc2)c2c(F)cccc2c1=O [Example 216] | 0.951
